Test results published in patent publication US9066958B2 (priority 2006, dated 2015).

Test: Stability of solvent with storage
Type: physicochemical

Q: With Olive oil as the substance, how does the “Stability of solvent with storage” value read?
A: Its value is “Oxidizes/”.
